Test results reported in patent US10414718B2, “Dezocine analogue” (priority 2016, dated 2019).

Chains of the proteins cited; added tags and fusions are not shown.
UniProt P41145, whole entry: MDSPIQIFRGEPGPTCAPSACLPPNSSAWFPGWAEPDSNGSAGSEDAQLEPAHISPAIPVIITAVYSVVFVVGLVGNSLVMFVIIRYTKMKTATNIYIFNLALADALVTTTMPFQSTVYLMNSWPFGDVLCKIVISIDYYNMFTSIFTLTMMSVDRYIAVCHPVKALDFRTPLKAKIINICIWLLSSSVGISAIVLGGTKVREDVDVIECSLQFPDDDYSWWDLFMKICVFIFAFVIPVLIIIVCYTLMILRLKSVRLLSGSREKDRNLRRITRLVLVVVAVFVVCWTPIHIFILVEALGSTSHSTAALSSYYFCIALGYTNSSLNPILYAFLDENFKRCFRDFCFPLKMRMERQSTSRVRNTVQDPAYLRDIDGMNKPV
UniProt P35372, whole entry: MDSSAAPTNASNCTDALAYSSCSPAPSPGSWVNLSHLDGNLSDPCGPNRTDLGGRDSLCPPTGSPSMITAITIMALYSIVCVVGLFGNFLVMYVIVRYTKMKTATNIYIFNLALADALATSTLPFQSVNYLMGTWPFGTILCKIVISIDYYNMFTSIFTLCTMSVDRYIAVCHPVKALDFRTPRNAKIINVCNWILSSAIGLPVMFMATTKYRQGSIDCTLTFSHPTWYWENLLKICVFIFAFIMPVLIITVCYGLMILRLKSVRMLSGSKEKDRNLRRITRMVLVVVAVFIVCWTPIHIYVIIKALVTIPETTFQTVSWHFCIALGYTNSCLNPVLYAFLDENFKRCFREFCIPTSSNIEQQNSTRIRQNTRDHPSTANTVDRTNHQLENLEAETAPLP

How the values were obtained:
Type in all cases: cell-based
[1] = molecular target: κ opioid receptor (Homo sapiens, UniProt P41145); experiment: FLIPR intracellular calcium signal test, HEK293-κ cells; settings: for EC50: read-out: Kapp receptor EC50, EC50 (activation) test; for IC50: read-out: Kapp receptor IC50, IC50 (inhibition) test against EC80 of positive agonist
Procedure: (§1) Fluorescence imaging plate reader FLIPR was used to detect changes of intracellular calcium signals. EC50 and IC50 values of the compounds were used as indicators to evaluate the activation or inhibition of the compounds on μ, κ, and δ opioid receptors.
(§2) Cell lines: HEK293-μ, HEK293-κ and HEK293-δ, stable-transfected cell lines HEK293-μ, HEK293-κ and HEK293-δ; Cell culture media (DMEM, Invitrogen #11965118, 10% fetal bovine serum Invitrogen #10099141, Geneticin Selective Antibiotic (G418) 300 μg/mL, Invitrogen #10131027, Blasticidin-S HCL 2 ug/mL Invitrogen #A1113902)
(§3) 1. Cell Seeding (HEK293-μ, HEK293-κ and HEK293-δ Cells)
(§4) 1) Preheating medium, pancreatic enzyme, and DPBS in a 37° C. water bath. Aspirating the culture medium from the cell culture flask and washing it with 10 mL DPBS;
(§5) 2) Adding the preheated pancreatic enzyme solution to the cell culture flask, rotating the flask slightly to make the pancreatic enzymes evenly cover the cell surface of the flask, and then putting it into a 37° C., 5% CO2 incubator to digest for 1-2 minutes;
(§6) 3) Suspending the cells with 10-15 mL culture medium in each T150 cm^2 cell culture flask, centrifugating at 800 rpm for 5 minutes, and resuspending the cells with 10 mL culture medium, aspirating 1 mL cell resuspension to be counted with Vi-cell;
(§7) 4) Diluting HEK293-μ, HEK293-κ and HEK293-δ cells to 5×10^5/mL with culture medium, use multichannel pipette to add diluted cells into 384 plate (Greiner #781946) (50 μL/well, 25000 cells/well for HEK293-μ, HEK293-κ and HEK293-δ cells). Placing the cell plate in a 37° C., 5% CO2 incubator overnight.
(§8) 2. Adding Compound Samples:
(§9) 1) Diluting the compound to 20 mM with DMSO, 3 fold diluted, 8 gradients, double reduplicative wells, and adding it to the compound plate using an Echo ultrasonic liquid handler device (Echo liquid handler).
(§10) 1) Washing off the cell culture medium in 384 plate with vacuum pump, adding 20 μL Fluo-4 Direct fluorescent dye, then incubating in a 37° C., 5% CO2 incubator for 50 minutes, followed by equilibrating at room temperature for 10 minutes.
(§11) 2) EC50 test: Adding 20 uL HBSS buffer (containing 20 mM HEPES) to the compound plate, mixing well and centrifugating. Placing the cell plate and compound plate into FLIPR and reading the fluorescence value.
(§12) 3) After the EC50 test, placing the cell plate into a 37° C., 5% CO2 incubator to be incubated for 25 minutes. Calculating the EC80 value with the EC50 value of the positive agonist, preparing 4× EC80 solution, adding it to the 384 compound plate by multichannel pipette, and mixing well and centrifugating.
(§13) 4) IC50 test: In FLIPR, successively placing 4× EC80 plate, cell plate, FLIPR tip, running the program and reading the fluorescence value.
4. […]

[2] = molecular target: δ opioid receptor (Homo sapiens, UniProt P41143); experiment: FLIPR intracellular calcium signal test, HEK293-δ cells; settings: for EC50: read-out: Delt receptor EC50, EC50 (activation) test; for IC50: read-out: Delt receptor IC50, IC50 (inhibition) test against EC80 of positive agonist
Procedure: as §1, §2, §3, §4, §5, §6, §7, §8, §9, §10, §11, §12, §13
4. […]

[3] = molecular target: μ opioid receptor (Homo sapiens, UniProt P35372); experiment: FLIPR intracellular calcium signal test, HEK293-μ cells; settings: for EC50: read-out: Mu receptor EC50, EC50 (activation) test; for IC50: read-out: Mu receptor IC50, IC50 (inhibition) test against EC80 of positive agonist

SMILES | EC50 [1] [nM] | IC50 [1] [nM] | EC50 [2] [nM] | IC50 [2] [nM] | EC50 [3] [nM] | IC50 [3] [nM]
CCC12CCCCC(Cc3c(F)cc(O)cc31)C2N (single isomer, unassigned) [Compound 28] | > 100000 | 100 to 1000 | > 100000 | 1000 to 10000 | < 100 | 100 to 1000
CCC12CCCCC(Cc3c(F)cc(O)cc31)C2N (single isomer, unassigned) [Compound 29] | > 100000 | 1000 to 10000 | > 100000 | 10000 to 100000 | < 100 | 100 to 1000
